{"source": "paper PMC3069143", "about": "(Analytical chemistry, 2011)", "key": {"human hepatic cell lines": {"tested_on": "human hepatic cell lines", "settings": "ref Table S2 (SI); cited from earlier work"}, "Calf thymus ds-DNA": {"tested_on": "Calf thymus ds-DNA", "settings": "0.2 mM substrate; either RLE or HLE; NADPH regenerating system"}}, "data": [{"smiles": "O=NN1CCCC1", "note": "[NPYR, N-nitrosopyrrolidine]", "values": [{"measurement": "Comet assay OTM/conc.", "setting": "human hepatic cell lines", "value": "small"}, {"measurement": "ECL produced relative to styrene", "setting": "Calf thymus ds-DNA", "value": "2–3 times"}]}]}
